Screening results deposited in PubChem BioAssay by National Center for Advancing Translational Sciences (NCATS).
This is a sample that favours compounds with a hit; in the whole collection about 3.7% have one here.
A549 viability – kills or reduces viability of A549 cells in Nrf2 counter-screen; 0.16% of 390,000 active; Potency, µM (doses to about 46 µM), for the others: at the top dose activity change, negative = cytotoxicity, usual class: inhibitors; AID 504648; A549 ARE-Fluc cells, CellTiter-Fluor viability, 18-24 h; note: potency is the fitted concentration of half-maximal effect; % is set by controls: 0 for no effect and ±100 for the full control effect
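A549 ARE-Fluc cells in 5% FBS OPTI-MEM, 5000 cells/well, rested 2 h then exposed to compounds in concentration-response for 18-24 h at 37 °C. Viability by CellTiter-Fluor fluorescence (Ex 405/Em 525) after 30 min; luciferase luminescence (BugLite, 15 min, RT) read afterwards.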
IL-2 act – IL-2 activation; AID 652025; 0.065% of 360,000 active; activation, % (series mostly up to about 46 µM); IL-2 activation reporter assay, cell-based qHTS; stimulated with anti-CD3/CD4/CD28 beads; in transgenic mouse T cells; in the data active = activation above about 50%; inconclusive = mostly about 30% to 49%; note: 0% is about no effect
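Unstimulated transgenic mouse T cells preincubated 60 min with compound, then stimulated with anti-CD3/anti-CD4-coated beads plus anti-CD28 for 18 h at 37 degrees C. IL-2 response read as EGFP and DsRed fluorescence by plate cytometry.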
Nrf2 activator – activates Nrf2 signaling; 0.31% of 410,000 active; Potency, µM (series often up to 46.1 µM), inactives show top-dose activation, usual class: activators; AREc32 ARE-luciferase reporter (MCF7-derived line), luminescence, 24 h; AID 624171; note: potency is the fitted concentration of half-maximal effect; % of control where 0% means no effect; nearly all actives have a fitted effect of over 65% in size
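Reporter line AREc32 (ARE-Fluc), seeded overnight in OPTI-MEM with 5% FBS; compound pin-transferred, 24 hr at 37 deg C, 5% CO2; luminescent read-out.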
miR-21 reporter – raises the signal of a miR-21 reporter | HeLa miR-21 FLuc reporter, luciferase, 48 h | Potency, µM (doses to about 38.3 µM), for the others: at the highest dose reporter change, positive = more light | 340,000 tested, under 10 active | AID 2288; active = well fitted rising curve with a large enough effect; inconclusive = small, poorly fitted or top-dose-only effect; inactive = no such curve, though single readings can be large or run the other way;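 also: % of control where 0% means no effect; miR-21 action dims this reporter so a rising signal means less miR-21 action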
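HeLa cells endogenously expressing miR-21, stably carrying CMV-driven firefly luciferase with a downstream miR-21 binding site, 2000 cells/well. Titrations up to approximately 40 uM, 48 hours; luciferase luminescence read.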
ClpP mod – qHTS Assay for Activators of ClpP; ATP-dependent Clp protease proteolytic subunit (Bacillus subtilis (strain 168)), P80244; purified B. subtilis ClpP, FRET peptide cleavage, 20 min; Potency, µM (titrated, usually from 57.5 µM), for the others: top-dose activity change, negative = active; 1.9% of 340,000 active; active = well fitted falling curve with a large enough effect; inconclusive = small, poorly fitted or top-dose-only effect; inactive = no such curve, though single readings can be large or run the other way; note: potency is the fitted concentration of half-maximal effect; the source files actives as falling curves though it sought activators and does not explain the sign; nearly all actives have a fitted effect of over 65% in size
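Buffer: 100 mM Tris/HCl pH8, 100 mM KCl, 0.05% low protease BSA, 2.5% glycerol, 0.01% Tween-20. ClpP 10 microg/mL final; 20 min RT; delta FRET normalized to ADEP and DMSO controls.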
Nrf2 inh – Nrf2 pathway inhibition; A549 ARE-Fluc reporter, luciferase luminescence, 18-24 h; Potency, µM (series often up to 46 µM), for the others: at the top dose activity change, negative = inhibition, most hits filed as inhibitors; 2.1% of 360,000 active; AID 504444; note: potency is the fitted concentration of half-maximal effect; % is set by controls: 0 for no effect and ±100 for the full control effect; nearly all actives have a fitted effect of over 60% in size
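Nrf2 activity is the BugLite luminescence, read 15 min after reagent at room temperature, following CellTiter-Fluor cytotoxicity readout (30 min, 37C). Compound titrations were applied for 18-24 h to 5000 A549 ARE_Fluc cells/well in 5% FBS OPTI-MEM.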
Numbers without * were called inactive; ? = inconclusive; . = no result given; ! = not confirmed by another sample. Unless noted, calls come from the whole dose curve; as a rule, active = well fitted curve in the direction sought with a large enough effect; inconclusive = small, poorly fitted or top-dose-only effect, or another doubt; inactive = no such curve, though single readings can be large; an effect the other way counts as inactive or inconclusive.

Letter code: A = A549 viability; B = IL-2 act; C = Nrf2 activator; D = miR-21 reporter; E = ClpP mod; F = Nrf2 inh
(1) CSc1nn(Cc2ccc(Br)cc2)c(N(C(C)=O)C(C)=O)c1S(=O)(=O)c1ccccc1
  A: -19.2%	B: .	C: 0.4%	D: 21.9%	E: -1.1%	F: ?

(2) CCCCN1C(=O)c2ccccc2NC1c1ccc(OC)c(COc2ccc(NC(C)=O)cc2)c1 (stereo not drawn)
  A: -0.3%	B: .	C: .	D: .	E: .	F: ?

(3) COc1cc2ccccc2cc1C(=O)Nc1ccc2oc(-c3cccc(C)c3)nc2c1
  A: 4.5%	B: .	C: 2.7%	D: -5.8%	E: ?	F: ?

(4) CCn1c(SCC(=O)N/N=C/c2ccc(C)o2)nnc1-c1ccc(C(C)(C)C)cc1
  A: -1.9%	B: -1.6	C: 6.3%	D: 9.8%	E: -1.5%	F: -18.2%

(5) CCn1c(SCC(=O)c2c[nH]c3ccccc23)nnc1-c1cccs1
  A: -10.2%	B: 1.0	C: 11.2µM*	D: 4.5%	E: -4.4%	F: -16.0%

(6) CCn1c(SCc2nc(-c3ccccc3)no2)nnc1-c1cccs1
  A: .	B: -0.4	C: 4.4%	D: -4.8%	E: -0.5%	F: ?

(7) CCn1c(SCc2nc3ccccc3s2)nnc1-c1cccs1
  A: 2.8%	B: -0.9	C: 14.1µM*	D: -58.3%	E: -7.1%	F: ?

(8) CCn1c(SCC(=O)N/N=C/c2c[nH]c3ccccc23)nnc1-c1ccc(C(C)(C)C)cc1
  A: ?	B: -1.6	C: 0.0%	D: 23.0%	E: -3.1%	F: 16.4µM*

(9) CCn1c(SCc2nc(-c3cccs3)no2)nnc1-c1c[nH]c2ccccc12
  A: ?	B: 0.4	C: -0.5%	D: 23.8%	E: -1.0%	F: 18.4µM*

(10) Cc1nc2ccn(Cc3cccs3)c(=O)c2cc1C(=O)Nc1ccccc1
  A: -0.2%	B: .	C: 13.1%	D: 28.5%	E: -26.8%	F: 20.4%

(11) CCC(=O)N1CCc2cc(Br)cc(S(=O)(=O)N3CCCC(C(=O)Nc4cccc(Cl)c4C)C3)c21 (stereo not drawn)
  A: -0.9%	B: .	C: -0.1%	D: -6.0%	E: 2.2%	F: -22.8%

(12) CCSC1=NS(=O)(=O)c2ccccc21
  A: -4.4%	B: .	C: .	D: .	E: .	F: -7.0%

(13) CC(=O)c1ccc(-c2ccc(-c3cc(=O)oc4c(C(C)C)ccc(C)c34)cc2)cc1
  A: -0.2%	B: -0.4	C: 0.9%	D: .	E: -5.1%	F: 23.1µM*

(14) Cc1ccc(C(C)C)c2oc(=O)cc(-c3ccc(-c4ccc(C(F)(F)F)cc4)cc3)c12
  A: -0.2%	B: 0.1	C: -1.0%	D: .	E: -3.8%	F: ?

(15) COCCSc1nc2c([nH]c3ccccc32)c(=O)n1-c1ccc(OC)c(OC)c1
  A: -5.4%	B: .	C: 4.1%	D: ?	E: -16.6%	F: .

(16) COc1cc(OC)c(NC(=O)N2CCc3cc(S(=O)(=O)N4CCC(C)CC4)ccc32)cc1Cl
  A: -2.1%	B: .	C: -0.3%	D: -4.9%	E: ?	F: -8.9%

(17) CCc1ccc(-c2nc(CSCC(=O)N3CCN(c4ncccn4)CC3)c(C)o2)cc1
  A: -17.7%	B: -4.2	C: 0.4%	D: 13.3%	E: -26.2%	F: 20.6µM*

(18) Cc1cccc(-c2nc(CSCC(=O)N3CCN(c4ccccc4)CC3)c(C)o2)c1
  A: -10.1%	B: .	C: 0.0%	D: 18.5%	E: -3.2%	F: 23.1µM*

(19) O=C(NCc1ccccc1Cl)c1nnc(Cc2cccc(F)c2)o1
  A: 8.7%	B: .	C: -1.3%	D: 23.6%	E: 0.0%	F: -4.9%

(20) O=S(=O)(O)Sc1ccccc1
  A: .	B: -3.8	C: 2.7%	D: .	E: -2.5%	F: .

Further compounds follow:
nr | Molecule | A549 viability | IL-2 act | Nrf2 activator | miR-21 reporter | ClpP mod | Nrf2 inh
21 | CCN(CC)c1ccc(SS(=O)(=O)O)cc1 | 14.8% | 0.3 | 4.4% | 17.3% | 14.1µM*! | -15.7%
22 | Cc1ccc(C)c(OCCCn2c(-c3ccc(Cl)cc3)nc3ccccc3c2=O)c1 | 0.2% | . | 6.1% | 3.1% | -5.1% | 2.8%
23 | Cc1cc(C)c(CSc2nnc(C)n3c2cc2occc23)c(C)c1 | -0.6% | . | 3.2% | -14.7% | -4.8% | -27.2%
24 | O=S(=O)(/C=C/C=C/S(=O)(=O)c1ccccc1)c1ccccc1 | ? | -5.7 | -3.2% | . | -3.0% | 25.9µM*
25 | COc1cc2c(cc1OC)CN(c1ccc3ccccc3n1)CC2 | 2.3% | -0.2 | 2.3% | 0.1% | . | -22.8%
26 | COc1cc2c(cc1OC)CN(c1ccc(-c3ccccc3OC)nn1)CC2 | -5.1% | 4.5 | 3.7% | -9.9% | -2.4% | 18.4µM*
27 | COc1ccc(-c2csc(NC(=O)c3ccccc3S(C)(=O)=O)n2)cc1 | -11.0% | 0.4 | 2.3% | 6.1% | . | 16.4µM*
28 | CC(=O)c1c(C)[nH]c(C(=O)Nc2nc(-c3ccc(-c4ccccc4)cc3)cs2)c1C | ? | 0.1 | 0.5% | -7.3% | ? | 23.1µM*
29 | CC(=O)c1c(C)[nH]c(C(=O)Nc2nc(-c3ccc(Cl)cc3)cs2)c1C | 1.3% | -1.1 | 0.7% | -3.5% | -5.4% | ?
30 | COc1ccc(C(=O)Nc2nc(-c3ccccn3)cs2)cc1S(=O)(=O)N1CCOCC1 | -3.1% | -0.4 | -0.3% | . | -4.6% | 16.4µM*
31 | COc1ccc(C(=O)Nc2ccccn2)cc1S(=O)(=O)N1CCOCC1 | 0.6% | 3.9 | 14.2% | 1.2% | 0.7% | 12.7%
32 | O=C(Nc1nc(-c2ccccn2)cs1)c1cccc(S(=O)(=O)N2CCOCC2)c1 | ? | 2.1 | 0.7% | . | -3.9% | 3.26µM*
33 | Cc1cc(C)c(Cn2c3ccccc3c3cnn(CC(=O)N4CCCCCC4)c(=O)c32)c(C)c1 | 10.0% | . | -0.7% | 3.3% | -3.6% | -10.5%
34 | COc1ccc(NC(=O)CN(c2cc(C)cc(C)c2)S(=O)(=O)c2c(C)noc2C)cc1Cl | -0.1% | . | 0.6% | -1.2% | -2.2% | ?
35 | CCOC(=O)c1c(S(=O)(=O)NCC(=O)Nc2ccc(C)c(N(C)C)c2)c(C)n(C)c1C | -2.4% | . | 0.7% | -3.8% | 2.8% | .
36 | Cc1ccc(S(=O)(=O)N2CCOCC2)cc1C(=O)Nc1nc(-c2ccccn2)cs1 | -12.2% | -0.3 | 1.4% | . | -0.8% | 9.2µM*
37 | COc1ccc(-c2csc(NC(=O)CS(=O)(=O)c3ccccc3)n2)cc1 | -1.5% | 1.4 | 2.5% | . | . | ?
38 | CC(C)C(=O)Nc1nc(-c2ccc(S(=O)(=O)N3CCOCC3)cc2)cs1 | 4.9% | -0.6 | 0.2% | 1.9% | 31.6µM* | 8.1%
39 | COc1ccc(-c2csc(NC(=O)C3CCCCN3S(=O)(=O)c3ccccc3)n2)cc1 (stereo not drawn) | -29.7% | -0.8 | 2.9% | 27.1% | -2.2% | 23.1µM*
40 | O=C(Nc1nc(-c2ccccn2)cs1)c1ccc(S(=O)(=O)N2CCCCC2)cc1 | . | . | . | 16.5% | . | .
41 | COc1ccc(-c2csc(NC(=O)c3cccc(S(=O)(=O)N4CCN(C)CC4)c3)n2)cc1 | -12.6% | -0.1 | 2.4% | 23.8% | -1.2% | 14.6µM*
42 | CN1CCN(S(=O)(=O)c2cccc(C(=O)Nc3nc(-c4ccccc4)cs3)c2)CC1 | 14.2% | 0.9 | 7.2% | 14.2% | -1.6% | -19.2%
43 | OC(Br)C(O)C(O)N1CCCc2ccccc21 (stereo not drawn) | . | . | . | . | -10.3% | .
44 | COc1cccc(N2C(=O)CSC23C(=O)N(Cc2ccccc2)c2ccccc23)c1 (stereo not drawn) | -3.5% | . | 0.3% | -0.8% | 0.2% | -3.4%

4 entries drawn at random from those above:
nr | Molecule | A549 viability | IL-2 act | Nrf2 activator | miR-21 reporter | ClpP mod | Nrf2 inh
28 | CC(=O)c1c(C)[nH]c(C(=O)Nc2nc(-c3ccc(-c4ccccc4)cc3)cs2)c1C | ? | 0.1 | 0.5% | -7.3% | ? | 23.1µM*
21 | CCN(CC)c1ccc(SS(=O)(=O)O)cc1 | 14.8% | 0.3 | 4.4% | 17.3% | 14.1µM*! | -15.7%
34 | COc1ccc(NC(=O)CN(c2cc(C)cc(C)c2)S(=O)(=O)c2c(C)noc2C)cc1Cl | -0.1% | . | 0.6% | -1.2% | -2.2% | ?
38 | CC(C)C(=O)Nc1nc(-c2ccc(S(=O)(=O)N3CCOCC3)cc2)cs1 | 4.9% | -0.6 | 0.2% | 1.9% | 31.6µM* | 8.1%
